This note sets out measurements from patent US20140171455A1, “Reduction of Microglia-Mediated Neurotoxicity by Kv1.3 Inhibition” (The Regents of the University of California, priority 2011, published 2014).

Sequences of proteins named here, by UniProt entry; tags and fusion partners are left off.
UniProt P16390, whole entry: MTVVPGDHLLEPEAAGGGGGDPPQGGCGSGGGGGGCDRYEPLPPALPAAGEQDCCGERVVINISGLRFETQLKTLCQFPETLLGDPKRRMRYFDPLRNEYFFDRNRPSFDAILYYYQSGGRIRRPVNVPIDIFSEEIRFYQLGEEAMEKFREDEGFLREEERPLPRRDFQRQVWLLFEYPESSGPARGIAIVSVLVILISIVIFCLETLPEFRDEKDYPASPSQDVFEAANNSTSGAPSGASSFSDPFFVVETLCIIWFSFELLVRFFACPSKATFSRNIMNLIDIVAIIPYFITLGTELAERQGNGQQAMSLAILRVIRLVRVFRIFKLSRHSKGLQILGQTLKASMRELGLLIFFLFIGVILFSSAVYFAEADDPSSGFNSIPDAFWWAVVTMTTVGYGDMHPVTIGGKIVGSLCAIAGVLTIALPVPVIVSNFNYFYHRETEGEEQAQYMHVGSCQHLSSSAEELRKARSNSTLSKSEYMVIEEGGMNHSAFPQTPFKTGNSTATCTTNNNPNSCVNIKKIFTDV

A word on the IC50: it is the concentration that inhibits the measured activity by half.

This assay deals with T1, Kv1.3 (Mus musculus, UniProt P16390).
T1 construct: pharmacological characterization of currents from cultured microglia stimulated for 48 hours with AbO or LPS; endogenous in cells; host or cells: primary microglia cultured from newborn C57Bl/6 mice, stimulated 48 h with AbO or LPS
Nature of the assay: Whole-cell voltage-clamp of Kv currents in cultured stimulated microglia. In kind it is cell-based. The settings on record: cultured microglia stimulated for 48 hours with AbO; read-out: IC50 on microglial Kv current. The procedure: In order to determine if Kv1.3 is indeed functionally expressed in mouse microglia Applicants performed electrophysiological experiments on cultured mouse microglia in the whole-cell mode of the patch-clamp technique. Kv currents were elicited with 500 millisecond pulses from a holding-potential of −100 mV to +40 mV applied every 45 sec.
Microglia cultured from newborn C57B1/6 mice were treated with lipopolysaccharides (LPS) or AbO for 24 or 48 hrs. […] Kv currents were elicited by 500 ms voltage steps from −80 to 40 mV (representative traces on right).

Take `CC[C@H](C)[C@@H]1NC(=O)[C@@H](NC(=O)[C@H](CO)NC(=O)[C@H](CCCNC(=N)N)NC(=O)COCCOCCNC(=O)[C@@H](N)Cc2ccc(OP(=O)(O)O)cc2)CSSC[C@@H](C(N)=O)NC(=O)[C@H]([C@@H](C)O)NC(=O)CNC(=O)[C@@H]2CSSC[C@@H]3NC(=O)[C@H](CCC(N)=O)NC(=O)[C@H](Cc4ccccc4)NC(=O)[C@H](C)NC(=O)[C@H]([C@@H](C)O)NC(=O)[C@H](CSSC[C@H](NC(=O)[C@H](Cc4ccccc4)NC(=O)[C@H](CO)NC(=O)[C@H](CC(C)C)NC(=O)[C@H](CCCNC(=N)N)NC(=O)[C@H](Cc4ccc(O)cc4)NC(=O)[C@H](CCCCN)NC(=O)[C@H](CCSC)NC(=O)[C@H](CO)NC(=O)[C@H](Cc4c[nH]cn4)NC(=O)[C@H](CCCCN)NC3=O)C(=O)N[C@@H](CCCNC(=N)N)C(=O)N[C@@H](CCCCN)C(=O)N[C@@H]([C@@H](C)O)C(=O)N2)NC(=O)[C@H](CCCNC(=N)N)NC(=O)[C@H](CO)NC(=O)[C@H](CCCCN)NC(=O)[C@@H]2CCCN2C(=O)[C@H]([C@@H](C)CC)NC(=O)[C@H]([C@@H](C)O)NC(=O)[C@H](CC(=O)O)NC1=O` [ShK-186]: the IC50 was 0.0685 nM.
